# Target: human BACE1 (Homo sapiens, UniProt P56817)
# By UniProt entry, the sequences of proteins in these tests, tags left out. Residues count along the entry.
# UniProt P56817, 46-501 limits assumed: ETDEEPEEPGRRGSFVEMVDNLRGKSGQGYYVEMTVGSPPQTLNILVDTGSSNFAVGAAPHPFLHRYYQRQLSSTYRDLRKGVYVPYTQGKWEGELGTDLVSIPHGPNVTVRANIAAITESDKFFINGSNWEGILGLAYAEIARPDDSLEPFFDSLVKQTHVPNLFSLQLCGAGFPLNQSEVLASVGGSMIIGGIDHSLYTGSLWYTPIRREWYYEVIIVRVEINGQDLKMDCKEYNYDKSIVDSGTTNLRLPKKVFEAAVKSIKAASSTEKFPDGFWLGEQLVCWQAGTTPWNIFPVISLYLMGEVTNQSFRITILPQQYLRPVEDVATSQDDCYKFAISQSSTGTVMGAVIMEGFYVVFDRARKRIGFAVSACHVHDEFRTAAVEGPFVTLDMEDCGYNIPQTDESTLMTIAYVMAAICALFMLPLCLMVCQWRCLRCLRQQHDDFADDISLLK
# Assay: Fluorescent kinetic assay, human BACE1 (FRET peptide substrate WABC-6);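 note: fluorescence monitored at excitation 320 nm and emission 420 nm over 30 min, with the substrate cleavage rate taken as the linear slope of the signal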
# Format: biochemical
# Details: read-out: IC50 (μM) BACE 1, 25 μM substrate WABC-6, pH 4.5, room temperature
row,SMILES,IC50 [µM]
1,NC(=NC(=O)Cn1c(-c2ccccc2)ccc1-c1ccc(Br)cc1)NCCCO,0.11 to 1
2,CC(=O)OCCNC(N)=NC(=O)Cn1c(-c2ccc(Oc3ccccc3)cc2)ccc1-c1ccccc1Cl,0.11 to 1
3,CC(=O)Nc1ccc(-c2ccc(-c3cccc(Cl)c3)n2CC(=O)N=C(N)N)cc1Br,1.1 to 5
4,N#CCCCNC(N)=NC(=O)Cn1c(-c2ccc(Oc3ccccc3)cc2)ccc1-c1ccccc1Cl,0.11 to 1
5,NC(=NC(=O)Cn1c(-c2ccccc2)ccc1-c1ccc(Br)cc1)NCc1ccc(F)c(F)c1F,1.1 to 5

# Further lines, results first:
row,IC50 [µM],SMILES
1,1.1 to 5,COC(=O)[C@@H](C)CNC(N)=NC(=O)Cn1c(-c2ccc(Oc3ccccc3)cc2)ccc1-c1ccccc1Cl
2,0.11 to 1,NC(=NC(=O)Cn1c(-c2ccccc2)ccc1C12CC3CC(CC(C3)C1)C2)NCCC1OCCO1
3,0.11 to 1,NC(=NC(=O)Cn1c(-c2ccccc2)ccc1C12CC3CC(CC(C3)C1)C2)N[C@H]1CC[C@H](O)CC1 (relative stereo)
4,1.1 to 5,C=C(C)COc1ccc(-c2ccc(-c3ccccc3)n2CC(=O)N=C(N)N)cc1

# From patent US7488832B2, “Azolylacylguanidines as β-secretase inhibitors” (Wyeth, priority 2005, dated 2009)
